{
  "source": "paper PMC8792998",
  "about": "(Journal of medicinal chemistry, 2021)",
  "system": "C. parvum",
  "test": "C. parvum time-kill curve",
  "type": "cell-based, Cryptosporidium parvum",
  "settings": "compound added at multiples of EC90 24 hours after infection",
  "data": [
    {"smiles": "O=C(Cc1ccc(Cl)c(Cl)c1)N1CCN(c2ccc3nncn3n2)CC1", "note": "[Compound 12a, 2-(3,4-Dichlorophenyl)-1-(4-{[1,2,4]triazolo[4,3-b]pyridazin-6-yl}piperazin-1-yl)ethan-1-one]", "values": [
      {"measurement": "effect on parasite numbers in time-kill assay", "result": "parasite numbers declined exponentially"}
    ]}
  ]
}
